In US7786093B2, “Antistress agent” (Health Wellness Foods Corporation, priority 2004, dated 2010):

Columns and labels:
[1] = test system: human mononuclear cells; test: IL-12 and IFN-γ production by mononuclear cells stimulated with heat-killed Lactobacillus plantarum L137, with DEX (ELISA); format: cell-based; conditions: DEX 10 nM, nigerose 0 μg/mL, Lactobacillus plantarum L137 1.0 μg/mL, 24 h
Protocol: A 2 μg/mL solution of a mouse anti-human IFN-γ antibody (manufactured by Endogen Inc.) prepared in a borate buffer solution was added in 50 μL per one well on a 96-well ELISA plate, and the plate was allowed to stand at 4° C. for a day to adhere the mouse anti-human IFN-γ antibody to each well. The above-mentioned culture supernatant was added in 50 μL per one well on the ELISA plate adhering the mouse anti-human IFN-γ antibody, and the plate was allowed to stand at room temperature for 90 minutes, thereby binding the IFN-γ in the culture supernatant to the mouse anti-human IFN-γ antibody adhered on the plate. […] The absorbance at a measurement wavelength of 492 nm and a reference wavelength of 630 nm was measured, and the concentration of the IFN-γ in the culture supernatant was obtained from a calibration curve prepared with a recombinant IFN-γ.
To the culture was added a cell stimulatory factor, which was heated dead body cells of Lactobacillus plantarum L137, so as to make a final concentration of […]. […] After completion of the incubation, the amounts of IL-12 and IFN-γ in the culture supernatant were measured by the ELISA.

[2] = test system: spleen cells of BALB/c mice; test: Preliminary test: cytokine productivity of spleen cells from DEX-administered mice (ELISA); format: in vivo; conditions: DEX 60 μg/mouse i.p., spleen cells 24 h after vs before DEX
Protocol: Before verifying the effect of nigerooligosaccharide, as a preliminary test in order to identify the decrease in cytokine productivity due to DEX, DEX (60 μg/mouse) was intraperitoneally administered to 14 weeks old, female BALB/c mice. Before and 24 hours after the administration of DEX, the spleen was excised from the BALB/c mice, and spleen cells were prepared by a conventional method. The prepared spleen cells were suspended in an RPMI 1640 culture medium so as to make a concentration of 5.0×10^6 cells/mL. This suspension was inoculated in 100 μL per one well on a 96-well tissue culture plate, and further a solution of a cell stimulatory factor, (1) PHA or (2) LPS, dissolved in the RPMI 1640 culture medium so as to make a final concentration of 12.5 μg/mL or 20 μg/mL, respectively, was added in 100 μL per one well. The spleen cells were cultivated at 37° C. for 24 hours in a 5% CO2 incubator, and the concentrations of cytokines in the culture supernatant, IL-4 and IFN-γ for the foregoing (1) or IL-10 and TNF-α for the foregoing (2), were measured by the ELISA. The amount of IFN-γ was measured on the basis of the ELISA described in Example 2. The amounts of IL-4, IL-10 and TNF-α were measured in a manner similar to the ELISA described in Example 2, except that the IFN-γ in the ELISA described in Example 2 was replaced by IL-4, IL-10 or TNF-α.
Hereupon, the cytokine production ratio (%) in the DEX-administered mice was calculated by the following equation: Cytokine production ratio (%)=(A/B)×100
A: The cytokine concentration in the culture supernatant of the cells of spleen excised 24 hours after the intraperitoneal administration of DEX
B: The cytokine concentration in the culture supernatant of the cells of spleen excised before the intraperitoneal administration of DEX

C[C@@H]1C[C@H]2[C@@H]3CCC4=CC(=O)C=C[C@]4(C)[C@@]3(F)[C@@H](O)C[C@]2(C)[C@@]1(O)C(=O)CO [DEX, Dexamethasone]
IL-12 [1]: 0.121 ± 0.046 ng/mL
Cytokine production ratio (%) in DEX-administered mice, IL-10 ([2]; LPS 20 μg/mL): 56.8%
Cytokine production ratio (%) in DEX-administered mice, TNF-α ([2]; LPS 20 μg/mL): 64.7%
Cytokine production ratio (%) in DEX-administered mice, IFN-γ ([2]; PHA 12.5 μg/mL): 51.7%
Cytokine production ratio (%) in DEX-administered mice, IL-4 ([2]; PHA 12.5 μg/mL): 65.8%
